Biological target: Histone deacetylase 3 (Homo sapiens, UniProt O15379)
Test: Inhibition of HDAC3 (unknown origin)

Protein sequences, listed by entry. Tags and fused reporters are not part of them. Lines headed by an entry give the natural chain unless they say otherwise; changes in a name come on top.
UniProt O15379: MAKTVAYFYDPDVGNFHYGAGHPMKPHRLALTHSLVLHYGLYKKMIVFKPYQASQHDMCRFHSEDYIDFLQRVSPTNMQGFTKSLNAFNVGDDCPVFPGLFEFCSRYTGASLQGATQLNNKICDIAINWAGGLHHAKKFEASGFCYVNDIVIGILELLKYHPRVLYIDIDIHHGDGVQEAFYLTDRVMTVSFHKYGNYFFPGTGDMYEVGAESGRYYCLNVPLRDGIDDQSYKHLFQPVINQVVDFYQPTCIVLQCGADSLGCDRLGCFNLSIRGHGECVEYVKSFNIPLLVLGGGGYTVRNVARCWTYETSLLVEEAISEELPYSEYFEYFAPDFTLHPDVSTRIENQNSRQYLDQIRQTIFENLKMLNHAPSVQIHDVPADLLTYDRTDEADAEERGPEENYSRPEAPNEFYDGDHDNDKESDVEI

## CC(C)C[C@H]1CC(=O)N[C@@H](C)C(=O)N[C@@H](CCCCCC(=O)NO)C(=O)N[C@@H](Cc2c[nH]c3ccccc23)C(=O)N1
  IC50: 8 nM

— ChEMBL document CHEMBL4052703, “Cyclic tetrapeptide HDAC inhibitors as potential therapeutics for spinal muscular atrophy: Screening with iPSC-derived neuronal cells” (Bioorg Med Chem Lett, 2017)
